PMC3785545 (Analytical biochemistry, 2013)

Sequences of proteins named here, by UniProt entry; tags and fusion partners are left off. A change or cut given only in a name is not applied to a line headed by its entry.
UniProt P08183, whole entry: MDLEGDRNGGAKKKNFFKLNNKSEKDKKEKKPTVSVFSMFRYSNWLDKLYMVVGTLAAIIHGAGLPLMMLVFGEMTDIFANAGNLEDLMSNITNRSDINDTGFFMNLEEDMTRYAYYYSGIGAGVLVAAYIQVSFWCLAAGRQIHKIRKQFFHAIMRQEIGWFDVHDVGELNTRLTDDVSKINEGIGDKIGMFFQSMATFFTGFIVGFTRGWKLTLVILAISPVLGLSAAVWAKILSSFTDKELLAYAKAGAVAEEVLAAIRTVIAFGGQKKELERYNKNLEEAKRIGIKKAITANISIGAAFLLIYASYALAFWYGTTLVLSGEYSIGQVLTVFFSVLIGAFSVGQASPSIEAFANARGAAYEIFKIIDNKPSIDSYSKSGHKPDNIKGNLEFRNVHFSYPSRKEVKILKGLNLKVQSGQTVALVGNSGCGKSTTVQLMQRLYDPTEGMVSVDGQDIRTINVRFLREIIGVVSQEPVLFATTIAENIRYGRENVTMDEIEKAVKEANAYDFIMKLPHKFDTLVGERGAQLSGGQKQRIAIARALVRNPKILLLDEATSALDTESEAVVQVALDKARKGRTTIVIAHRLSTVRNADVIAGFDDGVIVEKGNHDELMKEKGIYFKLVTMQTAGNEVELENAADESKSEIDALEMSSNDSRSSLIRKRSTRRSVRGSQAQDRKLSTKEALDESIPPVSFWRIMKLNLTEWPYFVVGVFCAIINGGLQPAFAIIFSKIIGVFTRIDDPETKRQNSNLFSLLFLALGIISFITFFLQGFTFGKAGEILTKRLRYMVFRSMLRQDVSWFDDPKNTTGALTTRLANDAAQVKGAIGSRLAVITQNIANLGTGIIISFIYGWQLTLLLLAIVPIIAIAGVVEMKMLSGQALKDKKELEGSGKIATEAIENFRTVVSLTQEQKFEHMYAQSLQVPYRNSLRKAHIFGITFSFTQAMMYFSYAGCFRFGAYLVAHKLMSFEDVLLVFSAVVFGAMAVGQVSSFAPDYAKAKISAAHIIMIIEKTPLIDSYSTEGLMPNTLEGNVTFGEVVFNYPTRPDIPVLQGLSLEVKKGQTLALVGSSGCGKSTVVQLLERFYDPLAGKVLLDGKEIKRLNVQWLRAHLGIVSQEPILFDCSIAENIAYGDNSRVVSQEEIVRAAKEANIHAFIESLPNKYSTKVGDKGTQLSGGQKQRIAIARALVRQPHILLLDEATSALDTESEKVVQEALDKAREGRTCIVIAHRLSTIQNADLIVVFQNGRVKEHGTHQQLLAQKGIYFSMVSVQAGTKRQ
UniProt Q9UNQ0: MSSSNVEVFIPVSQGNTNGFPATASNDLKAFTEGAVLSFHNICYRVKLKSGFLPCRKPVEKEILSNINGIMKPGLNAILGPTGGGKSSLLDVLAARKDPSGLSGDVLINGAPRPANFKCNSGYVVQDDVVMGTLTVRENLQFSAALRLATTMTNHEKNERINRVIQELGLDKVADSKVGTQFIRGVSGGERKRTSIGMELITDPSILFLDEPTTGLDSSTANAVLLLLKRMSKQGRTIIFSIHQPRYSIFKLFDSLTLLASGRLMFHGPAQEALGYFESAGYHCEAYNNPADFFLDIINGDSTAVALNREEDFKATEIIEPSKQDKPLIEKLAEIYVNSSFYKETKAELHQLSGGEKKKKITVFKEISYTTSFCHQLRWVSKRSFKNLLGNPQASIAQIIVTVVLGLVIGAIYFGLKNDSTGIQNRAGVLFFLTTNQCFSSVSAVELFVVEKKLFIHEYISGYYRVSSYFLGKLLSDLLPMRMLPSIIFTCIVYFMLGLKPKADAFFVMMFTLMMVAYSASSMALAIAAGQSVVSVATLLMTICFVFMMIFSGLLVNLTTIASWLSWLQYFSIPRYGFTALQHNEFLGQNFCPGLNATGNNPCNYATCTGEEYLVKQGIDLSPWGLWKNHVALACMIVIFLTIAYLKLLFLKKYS

Experiments:
ABCB1 = ABCB1 (Homo sapiens, UniProt P08183); experiment: cell-based
ABCG2 = ABCG2 (Homo sapiens, UniProt Q9UNQ0); experiment: Uptake and efflux assay, Ig-MXP3 vs parental Igrov1 cells; conditions: primary efflux screen, 100 nM substrate compared

IC50 (ABCB1) | IC50 (ABCB1; IC50, inhibition of D2390 efflux, B1, substrate D2390 (BODIPY FL EDA) 500 nM, mean ± SD, n ≥ 2) | IC50 (ABCB1; IC50, inhibition of T3168 efflux, B1, substrate T3168 (JC-1) 500 nM, mean ± SD, n ≥ 2) | efflux by ABCG2 (in words) (ABCG2) | Compound
1100 nM and 6800 nM | 1200 ± 900 nM | 3700 ± 800 nM |  | COC(=O)C1=C(C)NC(C)=C(C(=O)OCCN(C)Cc2ccccc2)C1c1cccc([N+](=O)[O-])c1 (stereo not shown) [Nicardipine, nicardipine hydrochloride]
 |  |  | pan-ABCB1, -ABCC1, and -ABCG2 activity | BODIPY FL prazosin [B7433]

Several values for one entry are separate records, joined by “and”; a condition that tells them apart may be missing. Equal values may be shown once. Where a name gives a salt, the structure may show the parent alone. Read-outs that look alike come from different tables or passages of the source.
